Data from patent US8748461B2, “Metalloenzyme inhibitor compounds” (Viamet Pharmaceuticals, Inc., priority 2011, dated 2014).

Chains of the proteins cited; added tags and fusions are not shown.
UniProt P11712, whole entry: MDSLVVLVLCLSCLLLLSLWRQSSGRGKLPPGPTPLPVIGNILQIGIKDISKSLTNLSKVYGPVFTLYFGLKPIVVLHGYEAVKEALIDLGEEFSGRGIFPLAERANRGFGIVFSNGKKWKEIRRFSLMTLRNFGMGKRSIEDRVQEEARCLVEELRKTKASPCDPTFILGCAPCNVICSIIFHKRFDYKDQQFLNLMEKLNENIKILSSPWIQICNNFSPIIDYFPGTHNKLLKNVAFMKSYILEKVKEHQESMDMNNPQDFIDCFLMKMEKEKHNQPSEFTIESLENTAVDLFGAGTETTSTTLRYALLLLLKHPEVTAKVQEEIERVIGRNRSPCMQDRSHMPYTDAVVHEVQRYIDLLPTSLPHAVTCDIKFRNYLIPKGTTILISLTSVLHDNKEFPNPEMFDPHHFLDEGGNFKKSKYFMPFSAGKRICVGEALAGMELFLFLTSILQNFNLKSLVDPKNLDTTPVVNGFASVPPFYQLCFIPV
UniProt P33261, whole entry: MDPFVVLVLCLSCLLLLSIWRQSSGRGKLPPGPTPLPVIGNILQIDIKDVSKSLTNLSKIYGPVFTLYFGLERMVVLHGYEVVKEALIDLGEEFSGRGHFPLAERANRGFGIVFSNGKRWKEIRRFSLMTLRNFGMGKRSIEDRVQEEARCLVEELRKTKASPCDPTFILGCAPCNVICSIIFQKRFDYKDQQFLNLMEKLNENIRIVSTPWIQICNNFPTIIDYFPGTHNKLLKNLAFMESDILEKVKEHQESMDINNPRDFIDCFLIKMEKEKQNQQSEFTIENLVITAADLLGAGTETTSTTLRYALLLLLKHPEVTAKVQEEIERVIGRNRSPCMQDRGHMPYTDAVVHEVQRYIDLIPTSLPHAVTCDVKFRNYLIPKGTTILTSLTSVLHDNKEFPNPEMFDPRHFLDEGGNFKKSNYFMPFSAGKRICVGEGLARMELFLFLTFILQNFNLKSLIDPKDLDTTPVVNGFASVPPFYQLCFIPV

What was measured:
CYP2C9 = molecular target: T1, CYP2C9 (Homo sapiens, UniProt P11712); assay: Inhibition of liver cytochrome P450 enzymes, isozyme 2C9; format: in vitro ADME
T1 construct: from tissue; host or cells: pooled human liver microsomes
Experimental: (§1) B. […] Solutions of each test compound were separately prepared at concentrations of 20000, 6000, 2000, 600, 200, and 60 μM by serial dilution with DMSO:acetonitrile (MeCN) (50:50 v/v). The individual test compound solutions were then diluted 20-fold with DMSO:MeCN:deionized water (5:5:180 v/v/v) to concentrations of 1000, 300, 100, 30, 10, and 3 μM. […] The mixed inhibitor solutions were then diluted 20-fold with DMSO:MeCN:deionized water (5:5:180 v/v/v) to concentrations of 300, 100, 30, 10, 3, 1, 0.3, and 0.1 μM. The percent of organic solvent attributable to the test compound or inhibitor mixture in the final reaction mixture was 2% v/v. Pooled human liver microsome suspension (20 mg/mL) was diluted with phosphate buffer to obtain a 5 mg/mL suspension. A solution of NADPH was prepared in phosphate buffer at a concentration of 5 mM. Separate stock solutions of each substrate were prepared in DMSO:MeCN (50:50 v/v), mixed, and diluted in phosphate buffer to obtain a single solution containing each substrate at five times its experimentally determined Km concentration. […] A portion of the supernatant was analyzed by gradient reverse-phase HPLC with detection by electrospray ionization triple quadrupole mass spectrometry in the positive ion mode. Data was fitted to sigmoid dose-response curves and the inhibitory potency of each test compound was determined as its IC50 value.

CYP2C19 = molecular target: T2, CYP2C19 (Homo sapiens, UniProt P33261); assay: Inhibition of liver cytochrome P450 enzymes, isozyme 2C19; format: in vitro ADME
T2 construct: from tissue; host or cells: pooled human liver microsomes
Experimental: as §1

OC(Cn1cncn1)(Cn1cncn1)c1ccc(F)cc1F [Fluconazole, reference compound]
IC50 (CYP2C9): 29 µM
IC50 (CYP2C19): 8.2 µM
